This data set deals with the molecule itself. The experiment in a line: cryo-EM structure.

The values below come from publication doi:10.1101/2022.10.10.511556 (bioRxiv, 2022).

Broadly, the stoichiometry N is the number of molecules, sites or subunits per partner or assembly.

B1: β-arrestin 1 (βarr1), full length rat (natural protein)
chain: MGDKGTRVFKKASPNGKLTVYLGKRDFVDHIDLVDPVDGVVLVDPEYLKERRVYVTLTCAFRYGREDLDVLGLTFRKDLFVANVQSFPPAPEDKKPLTRLQERLIKKLGEHAYPFTFEIPPNLPCSVTLQPGPEDTGKACGVDYEVKAFCAENLEEKIHKRNSVRLVIRKVQYAPERPGPQPTAETTRQFLMSDKPLHLEASLDKEIYYHGEPISVNVHVTNNTNKTVKKIKISVRQYADICLFNTAQYKCPVAMEEADDTVAPSSTFCKVYTLTPFLANNREKRGLALDGKLKHEDTNLASSTLLREGANREILGIIVSYKVKVKLVVSRGGLLGDLASSDVAVELPFTLMHPKPKEEPPHREVPESETPVDTNLIELDTNDDDIVFEDFARQRLKGMKDDKDEEDDGTGSPHLNNR
For the protein B1, the “stoichiometry N” value was 2.
